Laboratory results from paper PMC3224194 (European journal of pharmacology, 2011).

Sequences of proteins named here, by UniProt entry; tags and fusion partners are left off. Residues count along the entry.
UniProt P28335, 33-458 Y358A: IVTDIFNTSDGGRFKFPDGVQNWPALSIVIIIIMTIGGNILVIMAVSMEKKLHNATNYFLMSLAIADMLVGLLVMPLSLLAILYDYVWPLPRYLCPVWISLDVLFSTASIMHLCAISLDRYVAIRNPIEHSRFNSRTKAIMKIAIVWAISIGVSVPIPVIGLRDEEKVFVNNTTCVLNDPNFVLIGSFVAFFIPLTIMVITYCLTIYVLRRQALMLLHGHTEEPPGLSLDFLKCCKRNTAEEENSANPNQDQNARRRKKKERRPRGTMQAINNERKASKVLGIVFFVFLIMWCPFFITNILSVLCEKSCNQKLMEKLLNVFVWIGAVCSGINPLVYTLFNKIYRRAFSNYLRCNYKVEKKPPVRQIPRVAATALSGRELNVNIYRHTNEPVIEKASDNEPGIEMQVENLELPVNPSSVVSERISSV
UniProt P28335, 33-458 S138A: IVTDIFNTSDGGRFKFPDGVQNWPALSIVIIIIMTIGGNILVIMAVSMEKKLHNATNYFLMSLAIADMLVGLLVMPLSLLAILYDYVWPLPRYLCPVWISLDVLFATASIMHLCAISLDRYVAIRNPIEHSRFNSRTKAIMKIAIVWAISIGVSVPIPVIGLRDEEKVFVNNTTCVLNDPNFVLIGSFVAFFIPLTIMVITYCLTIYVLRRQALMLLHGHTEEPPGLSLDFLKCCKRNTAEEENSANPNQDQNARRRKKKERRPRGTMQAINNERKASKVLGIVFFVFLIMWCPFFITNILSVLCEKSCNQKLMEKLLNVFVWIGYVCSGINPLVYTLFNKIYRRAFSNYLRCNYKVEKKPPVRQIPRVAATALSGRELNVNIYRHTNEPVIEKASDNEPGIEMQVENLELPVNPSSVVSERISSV
UniProt P28335, 33-458: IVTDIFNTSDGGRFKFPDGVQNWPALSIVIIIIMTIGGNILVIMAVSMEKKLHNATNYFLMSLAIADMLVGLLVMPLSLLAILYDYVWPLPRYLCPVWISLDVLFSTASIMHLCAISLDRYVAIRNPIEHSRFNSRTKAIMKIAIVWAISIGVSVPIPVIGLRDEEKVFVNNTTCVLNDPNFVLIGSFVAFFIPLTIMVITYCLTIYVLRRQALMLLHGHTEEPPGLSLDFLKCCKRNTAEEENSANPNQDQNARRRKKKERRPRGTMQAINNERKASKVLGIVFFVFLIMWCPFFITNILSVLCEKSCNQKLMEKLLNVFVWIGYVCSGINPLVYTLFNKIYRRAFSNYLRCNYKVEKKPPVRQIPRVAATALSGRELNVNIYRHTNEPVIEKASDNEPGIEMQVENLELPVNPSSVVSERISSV

Columns and labels:
[1] = molecular target: T1, human 5-HT2C-INI (WT) receptor (Homo sapiens, UniProt P28335, Y358A); test: [3H]-inositol phosphate accumulation; assay type: cell-based
[2] = molecular target: T2, human 5-HT2C-INI (WT) receptor (Homo sapiens, UniProt P28335, S138A); test: [3H]-inositol phosphate accumulation; assay type: cell-based
[3] = molecular target: human 5-HT2C-INI (WT) receptor (Homo sapiens, UniProt P28335); test: radioligand saturation binding, HEK membranes; conditions: read-out: [^3H]-Mesulergine / Kd; labelled compound; 50 mM Tris, 10 mM MgCl2, 0.1 mM EDTA; room temperature, 90 min
[4] = molecular target: T2, human 5-HT2C-INI (WT) receptor; test: radioligand saturation binding, HEK membranes
[5] = molecular target: T1, human 5-HT2C-INI (WT) receptor; test: radioligand saturation binding, HEK membranes

SMILES: CN1C[C@@H](NS(=O)(=O)N(C)C)C[C@@H]2c3cccc4c3c(cn4C)C[C@H]21 [[^3H]-mesulergine]
- IC50 [1]: 38.9 nM
- EC50 [2]: 19.9 nM
- Kd [3]: 1.8 nM
- Kd [4]: 2 nM
- Kd [5]: 3 nM
